Measurements published in PubChem BioAssay (NCI).
The list shows a part of the results, in another mix than the full data.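 Growth was measured after 48 h exposure to one concentration of compound in 96-well plates. Values under 10 count as active.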 Activity calls are given as the source filed them.

Key:
Assay in all cases: NCI-60 one-dose screen, 48 h (100 = growth as untreated, 0 = no growth, -100 = all killed)
Settings in all cases: 10 µM unless noted
[1] = system: SK-MEL-2 melanoma
[2] = system: EKVX NSCLC
[3] = system: SN12C renal
[4] = system: UO-31 renal
[5] = system: TK-10 renal
[6] = system: ACHN renal
[7] = system: CAKI-1 renal
[8] = system: A498 renal
[9] = system: HL-60(TB) leukemia
[10] = system: CCRF-CEM leukemia

## Cc1cc(C)cc(OP(=O)(Cl)Oc2cc(C)cc(C)c2)c1
[1]
  growth: inactive: 119%
[2]
  growth: inactive: 103%
[3]
  growth: inactive: 99.7%
[4]
  growth: inactive: 79.5%
[5]
  growth: inactive: 104%
[6]
  growth: inactive: 111%
[7]
  growth: inactive: 99.4%
[8]
  growth: inactive: 95.5%
[9]
  growth: inactive: 108%
[10]
  growth: inactive: 112%

## O=P1(N(CCCl)CCCl)OCCCN1CCCl (stereo unspecified)
[1]
  growth: inactive: 109%
[2]
  growth: inactive: 115%
[3]
  growth: inactive: 111%
[4]
  growth: inactive: 101%
[5]
  growth: inactive: 104%
[6]
  growth: inactive: 108%
[7]
  growth: inactive: 101%
[8]
  growth: inactive: 95.1%
[9]
  growth: inactive: 105%
[10]
  growth: inactive: 96.9%

## COC(=O)C1(C)COP(=O)(NCc2ccccc2)OC1 (stereo unspecified)
[1]
  growth: inactive: 98%
[2]
  growth: inactive: 105%
[3]
  growth: inactive: 93.6%
[4]
  growth: inactive: 81.9%
[5]
  growth: inactive: 88.6%
[6]
  growth: inactive: 110%
[7]
  growth: inactive: 98.1%
[8]
  growth: inactive: 77.1%
[9]
  growth: inactive: 83%
[10]
  growth: inactive: 92.8%

## COC(=O)C1(C)COP(=O)(N2CCCCCC2)OC1 (stereo unspecified)
[1]
  growth: inactive: 95.7%
[2]
  growth: inactive: 102%
[3]
  growth: inactive: 94.1%
[4]
  growth: inactive: 82.4%
[5]
  growth: inactive: 97.1%
[6]
  growth: inactive: 108%
[7]
  growth: inactive: 101%
[8]
  growth: inactive: 104%
[9]
  growth: inactive: 95%
[10]
  growth: inactive: 103%

## Fc1cccc(CNCCCl)c1
[1]
  growth: inactive: 114%
[2]
  growth: inactive: 112%
[3]
  growth: inactive: 125%
[4]
  growth: inactive: 102%
[5]
  growth: inactive: 110%
[6]
  growth: inactive: 122%
[7]
  growth: inactive: 102%
[8]
  growth: inactive: 129%
[9]
  growth: inactive: 111%
[10]
  growth: inactive: 80%

## CSc1ccc(Nc2c([N+](=O)[O-])cc([N+](=O)[O-])cc2[N+](=O)[O-])cc1
[1]
  growth: inactive: 104%
[2]
  growth: inactive: 76.5%
[3]
  growth: inactive: 53%
[4]
  growth: inactive: 37.3%
[5]
  growth: inactive: 82.2%
[6]
  growth: inactive: 54.1%
[7]
  growth: inactive: 62.5%
[8]
  growth: active: -9.7%
[9]
  growth: inactive: 63.7%
[10]
  growth: inactive: 30%

## Clc1ccc(P(Cl)Cl)cc1
[1]
  growth: inactive: 120%
[2]
  growth: inactive: 109%
[3]
  growth: inactive: 98.9%
[4]
  growth: inactive: 89.8%
[5]
  growth: inactive: 107%
[6]
  growth: inactive: 95.7%
[7]
  growth: inactive: 90.9%
[8]
  growth: inactive: 95.1%
[9]
  growth: inactive: 72.5%
[10]
  growth: inactive: 93.4%

## CN1C(=O)N(C)P12(Cl)N(C)C(=O)N2C
[1]
  growth: inactive: 108%
[2]
  growth: inactive: 102%
[3]
  growth: inactive: 99%
[4]
  growth: inactive: 107%
[5]
  growth: inactive: 103%
[6]
  growth: inactive: 114%
[7]
  growth: inactive: 99.5%
[8]
  growth: inactive: 90%
[9]
  growth: inactive: 100%
[10]
  growth: inactive: 102%

## CN(C)P(=O)(N(C)C)n1c(Nc2ccccc2)nnc1-c1ccccc1
[1]
  growth: inactive: 110%
[2]
  growth: inactive: 102%
[3]
  growth: inactive: 95.7%
[4]
  growth: inactive: 86.6%
[5]
  growth: inactive: 108%
[6]
  growth: inactive: 103%
[7]
  growth: inactive: 100%
[8]
  growth: inactive: 88.6%
[9]
  growth: inactive: 102%
[10]
  growth: inactive: 99.1%

## O=[N+]([O-])c1cc(Cl)c(O)c([N+](=O)[O-])c1
[1]
  growth: inactive: 92.6%
[2]
  growth: inactive: 103%
[3]
  growth: inactive: 97.6%
[4]
  growth: inactive: 92.1%
[5]
  growth: inactive: 103%
[6]
  growth: inactive: 105%
[7]
  growth: inactive: 101%
[8]
  growth: inactive: 89.7%
[9]
  growth: inactive: 109%
[10]
  growth: inactive: 102%

## COc1cc([N+](=O)[O-])cc([N+](=O)[O-])c1
[1]
  growth: inactive: 102%
[2]
  growth: inactive: 108%
[3]
  growth: inactive: 99.4%
[4]
  growth: inactive: 89%
[5]
  growth: inactive: 107%
[6]
  growth: inactive: 104%
[7]
  growth: inactive: 101%
[8]
  growth: inactive: 97.5%
[9]
  growth: inactive: 102%
[10]
  growth: inactive: 91%

## COC(=O)C1=C(C)O[P@](=O)(OC)CCC1c1ccccc1 (stereo partly specified)
[1]
  growth: inactive: 107%
[2]
  growth: inactive: 100%
[3]
  growth: inactive: 99.8%
[4]
  growth: inactive: 92.4%
[5]
  growth: inactive: 105%
[6]
  growth: inactive: 105%
[7]
  growth: inactive: 97.2%
[8]
  growth: inactive: 95.9%
[10]
  growth: inactive: 110%

## O=[N+]([O-])c1ccc(Nc2ccc(Oc3ccc([N+](=O)[O-])cc3[N+](=O)[O-])cc2)c([N+](=O)[O-])c1
[1]
  growth: inactive: 87.5%
[2]
  growth: inactive: 79.5%
[3]
  growth: inactive: 76.3%
[4]
  growth: inactive: 46.9%
[5]
  growth: inactive: 78%
[6]
  growth: inactive: 82.4%
[7]
  growth: inactive: 71.3%
[8]
  growth: inactive: 97.6%
[9]
  growth: inactive: 13.8%
[10]
  growth: inactive: 65.7%

## COc1cccc(OC)c1N(CCCl)CCCl
[1]
  growth: inactive: 99.5%
[2]
  growth: inactive: 102%
[3]
  growth: inactive: 95.8%
[4]
  growth: inactive: 90.4%
[5]
  growth: inactive: 98.8%
[6]
  growth: inactive: 105%
[7]
  growth: inactive: 95.3%
[8]
  growth: inactive: 108%
[9]
  growth: inactive: 92.4%
[10]
  growth: inactive: 105%

## CC(C)=N/N=C(\N)N[N+](=O)[O-]
[1]
  growth: inactive: 117%
[2]
  growth: inactive: 101%
[3]
  growth: inactive: 110%
[4]
  growth: inactive: 109%
[5]
  growth: inactive: 105%
[6]
  growth: inactive: 108%
[7]
  growth: inactive: 104%
[9]
  growth: inactive: 130%
[10]
  growth: inactive: 93.6%

## CC(=O)Nc1ccc([As](=O)(O)O)c(O)c1
[1]
  growth: inactive: 113%
[2]
  growth: inactive: 90.6%
[3]
  growth: inactive: 106%
[4]
  growth: inactive: 94.1%
[5]
  growth: inactive: 105%
[6]
  growth: inactive: 109%
[7]
  growth: inactive: 93.5%
[8]
  growth: inactive: 99.2%
[9]
  growth: inactive: 88.8%
[10]
  growth: inactive: 98.8%

## O=[N+]([O-])c1cc2cn[nH]c2cc1[N+](=O)[O-]
[1]
  growth: inactive: 118%
[2]
  growth: inactive: 87.3%
[3]
  growth: inactive: 90.5%
[4]
  growth: inactive: 71.6%
[5]
  growth: inactive: 134%
[6]
  growth: inactive: 95.7%
[7]
  growth: inactive: 93.2%
[8]
  growth: inactive: 92.7%
[9]
  growth: inactive: 102%
[10]
  growth: inactive: 86.9%

## CC1CN1P(=O)(Nc1ncccn1)N1CC1C (stereo unspecified)
[1]
  growth: inactive: 114%
[2]
  growth: inactive: 109%
[3]
  growth: inactive: 110%
[4]
  growth: inactive: 87.7%
[5]
  growth: inactive: 108%
[6]
  growth: inactive: 95.9%
[7]
  growth: inactive: 107%
[8]
  growth: inactive: 120%
[9]
  growth: inactive: 83%
[10]
  growth: inactive: 107%

## O=C(O)COc1ccc([As](=O)(O)O)cc1[N+](=O)[O-]
[1]
  growth: inactive: 109%
[2]
  growth: inactive: 107%
[3]
  growth: inactive: 99.8%
[4]
  growth: inactive: 104%
[5]
  growth: inactive: 111%
[6]
  growth: inactive: 102%
[7]
  growth: inactive: 106%
[9]
  growth: inactive: 119%
[10]
  growth: inactive: 82%

## ClC(Cl)(Cl)C1SCCS1
[1]
  growth: inactive: 114%
[2]
  growth: inactive: 95.1%
[3]
  growth: inactive: 99.5%
[4]
  growth: inactive: 93.2%
[5]
  growth: inactive: 107%
[6]
  growth: inactive: 108%
[7]
  growth: inactive: 91.4%
[8]
  growth: inactive: 89.8%
[9]
  growth: inactive: 93.5%
[10]
  growth: inactive: 97.2%

## CCOP(=O)(NC1CCCCC1)OCC
[1]
  growth: inactive: 107%
[2]
  growth: inactive: 106%
[3]
  growth: inactive: 88.5%
[4]
  growth: inactive: 84%
[5]
  growth: inactive: 111%
[6]
  growth: inactive: 98.4%
[7]
  growth: inactive: 90.9%
[8]
  growth: inactive: 105%
[9]
  growth: inactive: 106%
[10]
  growth: inactive: 92%

## COP(OC)c1ccc(C)cc1
[1]
  growth: inactive: 96.7%
[2]
  growth: inactive: 121%
[3]
  growth: inactive: 105%
[4]
  growth: inactive: 115%
[5]
  growth: inactive: 117%
[6]
  growth: inactive: 105%
[7]
  growth: inactive: 107%
[8]
  growth: inactive: 96.4%
[9]
  growth: inactive: 73.1%
[10]
  growth: inactive: 86.4%

## CCN(CCCl)CC1COc2ccccc2O1 (stereo unspecified)
[1]
  growth: inactive: 108%
[2]
  growth: inactive: 106%
[3]
  growth: inactive: 101%
[4]
  growth: inactive: 78.4%
[5]
  growth: inactive: 92.8%
[6]
  growth: inactive: 106%
[7]
  growth: inactive: 99.5%
[8]
  growth: inactive: 109%
[9]
  growth: inactive: 110%
[10]
  growth: inactive: 109%

## NC1=NCC(Br)CS1 (stereo unspecified)
[1]
  growth: inactive: 104%
[2]
  growth: inactive: 111%
[3]
  growth: inactive: 106%
[4]
  growth: inactive: 91%
[5]
  growth: inactive: 99.5%
[6]
  growth: inactive: 98.9%
[7]
  growth: inactive: 93.6%
[8]
  growth: inactive: 105%
[9]
  growth: inactive: 101%
[10]
  growth: inactive: 100%

## O=P1(N(CCCl)CCCl)OCCCS1 (stereo unspecified)
[1]
  growth: inactive: 118%
[2]
  growth: inactive: 101%
[3]
  growth: inactive: 108%
[4]
  growth: inactive: 103%
[5]
  growth: inactive: 108%
[6]
  growth: inactive: 97.6%
[7]
  growth: inactive: 113%
[8]
  growth: inactive: 76.7%
[9]
  growth: inactive: 93.4%
[10]
  growth: inactive: 97.6%

## CC1CCNP(=O)(N(CCCl)CCCl)O1 (stereo unspecified)
[1]
  growth: inactive: 122%
[2]
  growth: inactive: 94.6%
[3]
  growth: inactive: 113%
[4]
  growth: inactive: 83.5%
[5]
  growth: inactive: 107%
[6]
  growth: inactive: 105%
[7]
  growth: inactive: 90.3%
[8]
  growth: inactive: 95.9%
[9]
  growth: inactive: 121%
[10]
  growth: inactive: 84.4%

## ClCCN1Cc2ccccc2C1
[1]
  growth: inactive: 99.5%
[2]
  growth: inactive: 98.3%
[3]
  growth: inactive: 103%
[4]
  growth: inactive: 96.9%
[5]
  growth: inactive: 86.8%
[6]
  growth: inactive: 96.7%
[7]
  growth: inactive: 95.8%
[8]
  growth: inactive: 86.8%
[10]
  growth: inactive: 107%

## CCN(CCCl)Cc1cccc2ccccc12
[1]
  growth: inactive: 108%
[2]
  growth: inactive: 114%
[3]
  growth: inactive: 102%
[4]
  growth: inactive: 78%
[5]
  growth: inactive: 96%
[6]
  growth: inactive: 98.7%
[7]
  growth: inactive: 101%
[8]
  growth: inactive: 98.6%
[9]
  growth: inactive: 101%
[10]
  growth: inactive: 87.3%

## O=[N+]([O-])c1cc(Oc2ccc([N+](=O)[O-])cc2C(F)(F)F)cc([N+](=O)[O-])c1
[1]
  growth: inactive: 93.1%
[2]
  growth: inactive: 109%
[3]
  growth: inactive: 88.7%
[4]
  growth: inactive: 65.6%
[5]
  growth: inactive: 114%
[6]
  growth: inactive: 108%
[7]
  growth: inactive: 92.9%
[8]
  growth: inactive: 62.4%
[9]
  growth: inactive: 51.8%
[10]
  growth: inactive: 90.8%
